Data on two compounds can be found in PubChem BioAssay AID624267 (The Scripps Research Institute Molecular Screening Center, 2012).

The chains behind the UniProt entries cited, without tags or fusion partners.
UniProt O43353, whole entry: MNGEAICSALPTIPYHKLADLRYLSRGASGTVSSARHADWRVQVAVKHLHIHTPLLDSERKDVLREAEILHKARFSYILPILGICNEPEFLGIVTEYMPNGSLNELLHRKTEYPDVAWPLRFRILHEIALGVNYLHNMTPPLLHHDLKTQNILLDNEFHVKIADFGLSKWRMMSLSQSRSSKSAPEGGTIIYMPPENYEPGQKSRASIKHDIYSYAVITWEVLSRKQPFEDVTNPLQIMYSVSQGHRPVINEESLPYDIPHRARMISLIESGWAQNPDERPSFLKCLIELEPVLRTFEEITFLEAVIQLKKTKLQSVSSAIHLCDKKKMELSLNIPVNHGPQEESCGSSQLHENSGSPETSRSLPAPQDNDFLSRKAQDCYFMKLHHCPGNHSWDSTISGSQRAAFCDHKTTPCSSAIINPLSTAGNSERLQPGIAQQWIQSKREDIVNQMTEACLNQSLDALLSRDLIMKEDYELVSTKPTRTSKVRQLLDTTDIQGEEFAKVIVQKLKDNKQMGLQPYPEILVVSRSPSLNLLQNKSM

The entries are a selection whose mix differs from that of the whole data set. The source made the active and inactive calls. No stated cut-off is given here; in the data, active means inhibition above about 21%; inactive means the rest.

By inhibition is commonly meant the change of the read-out against control, counted positive when it falls.

The test deals with Receptor-interacting serine/threonine-protein kinase 2 (Homo sapiens) (UniProt O43353). In words: NOD2-RIPK2 binding disruptors in cells, primary screen, fluorescence, CHO cells, BLA complementation (AID 624267).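 Further: 0% = vehicle only and 100% = reference blocker.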 Particulars: CHO BLA complementation NOD2-RIPK2, CCF4 ratio; at 4.98 µM; active compounds read high.
Consider `CCC(=O)N(c1ccccc1)C1(COC)CCN(CCn2nnn(CC)c2=O)CC1`, for which the inhibition is inactive: -0.55%.
The figure for `CCC(=O)N(c1ccccc1)C1(COC)CCN(CCc2cccs2)CC1` is inactive: 0.93%.
